Experiments:
[1] = tested on: JIMT-1, BxPC-3 and Caco-2 cells; assay: HER-1/HER-2 anti-peptide antibody combination: MTT proliferation; type: cell-based, human; conditions: JIMT-1 and BxPC-3 (low HER-2 expression)
Experimental: FIG. 26 (A-C) contains graphs showing (A) the results of a MTT proliferation assay using combination treatment with HER-1 and HER-2 antibodies as inhibitors in colon (10,000/well), breast (5000/well for MCF-7 and 4000/well for JIMT-1), and pancreatic (4000/well) cancer cells in a 96-well plate; and (B & C) receptor phosphorylation as measured using human phospho-EGFR/HER-2 ELISA kits. Each inhibitor was used at a concentration of 200 μg that was determined after a dose dependent titration from 12.5 μg-200 μg.
In FIG. 26 A, the effects of combination treatment with HER-1 and HER-2 antipeptide vaccine antibodies in three different cell lines are shown: (i) JIMT-1 trastuzumab resistant breast cell line (ii) BxPC-3 pancreatic and (iii) Caco-2 colon cells. […] The results were most significant in the Caco-2 colon cells and this is because the cells express relatively high levels of HER-1 and HER-2. The BxPC-3 and JIMT-1 cells are low expressing HER-2 cell lines with normal HER-1 expression and this explains why the combination effects were less significant trastuzumab. […] FIGS. 26 (B & C) show phosphorylated levels of HER-1 and HER-2 following treatment with both HER-1 and HER-2 peptide vaccine antibodies.

A549 lung cancer cells = assay: BALB/c SCID transplantable lung tumor model; type: in vivo, mouse; design: tumor growth and development: dose or concentration left out as unconfirmed
Experimental: BALB/c SCID mice 5 to 6 weeks old were s.c. injected with 33106 A549 lung cancer cells, and starting from day of tumor injection, mice were treated i.v. with 200 mg each chimeric peptide or cetuximab. […] Tumor growth was measured twice weekly using vernier calipers, and at the end of the experiment, the tumors were extracted and weighed.
the inhibitory effects of the HER-1 peptide mimics and peptide vaccine Abs raised in rabbits were further analyzed in a lung cancer transplantable model using BALB/c SCID mice.

Question: With trastuzumab as the substance, how does the anti-proliferative effects [1] read?
Answer: The anti-proliferative effects was “no anti-proliferative effects”.

Question: For Cetuximab [reference compound], which “tumor growth and development” value (A549 lung cancer cells; i.v. weekly, peptide mimics or cetuximab) is on record?
Answer: The value was “significantly delayed tumor growth and development”.

Question: And the “percentage tumor weight per body mass” value (A549 lung cancer cells; peptide mimics, vaccine Abs, cetuximab)?
Answer: The value was “significant”.

Reference: patent US10800834B2, “HER-1, HER-3 and IGF-1R compositions and uses thereof” (OHIO STATE INNOVATION FOUNDATION, priority 2013, dated 2020)
